According to ChEMBL document CHEMBL4304783, “Discovery of a Novel Selective Dual Peroxisome Proliferator-Activated Receptor α/δ Agonist for the Treatment of Primary Biliary Cirrhosis” (ACS Med Chem Lett, 2019):

Legend:
[1] = species: Homo sapiens; experiment: Selectivity index, ratio of IC50 of human recombinant GST-tagged FXR LBD (193-472 residues) expressed in baculovirus infected insect cells to EC50 of PPARdelta (unknown origin)
[2] = species: Homo sapiens; experiment: Selectivity index, ratio of IC50 of human recombinant GST-tagged FXR LBD (193-472 residues) expressed in baculovirus infected insect cells to EC50 of PPARalpha (unknown origin)

In the case of `Cc1cc(Cc2cc(-c3ccc(Br)cc3)on2)cc(C)c1OC(C)(C)C(=O)O`, the Ratio IC50/EC50 [1] is reported as > 6000 and the Ratio IC50/EC50 [2] is reported as > 6000.
